Experimental data published in PMC4619462, “Description of the first fungal dye-decolorizing peroxidase oxidizing manganese(II)” (Applied Microbiology and Biotechnology, 2015).

Test system: CCn1c(=NN=c2sc3cc(S(=O)(=O)O)ccc3n2CC)sc2cc(S(=O)(=O)O)ccc21
Assay: purified protein
Conditions: 0.25 mM H2O2, 0.1 M tartrate pH 3.5, 25 °C

Pleos-DyP1 (Pleurotus ostreatus PC15)
Km: 779 ± 69 µM | kcat: 208 ± 8 s⁻¹ | kcat/Km: 267000 M⁻¹ s⁻¹
